# Experimental data: patent US5939429A, “Cardiovascular uses of cannabinoid compounds” (Virginia Commonwealth University, priority 1998, dated 1999)
# Assays:
# [1] = test system: CB1 receptor knockout -/- mice; test: Blood pressure of anesthesized CB1 receptor knock-out (-/-) mice; type: in vivo, mouse; conditions: 3 mg/kg i.v. SR141716A pretreatment
# Method: FIG. 6. The effect of 4 cannabanoid agonists on blood pressure of pentobarbital-anesthesized CB1 receptor knock-out mice (-/- mice, open circles, n=4-6) and their genetically matched controls with intact CB1 receptors (+/+ mice, filled circles, n=4-6).
# FIG. 10. The effect of abnormal cannabidiol on blood pressure in CB1 receptor knockout -/- mice. Mice were anesthesized with sodium pentobartital, 50 mg/kg i.p. and were pretreated with vehicle (open triangles) or 3 mg/kg i.v. SR141716A (filled triangles) before the i.v. injection of 20 mg/kg abnCBD.
# This possibility is further supported by our findings in genetically altered `knock-out` mice, which are deficient in CB1 receptors due to selective disruption of both alleles of the gene encoding this receptor (-/- mice).
# [2] = test system: CB1 receptor knockout -/- mice; test: LPS-induced hypotension in CB1 receptor knockout -/- mice; type: in vivo, mouse; conditions: pretreatment with 3 mg/kg SR141716A; HCl
smiles,measurement,setting,value
"Cc1c(C(=O)NN2CCCCC2)nn(-c2ccc(Cl)cc2Cl)c1-c1ccc(Cl)cc1 [SR141716A, HCl]",inhibition of abnCBD-induced hypotension,[1],inhibited
same,prevention of LPS-induced hypotension,[2],inhibited; also recorded: can be prevented

# “Also recorded” adds a separate entry of the source. Structures can show the parent of a compound that is named as a salt.
